Like-named read-outs stand apart in the source and are kept apart here.

The chains behind the UniProt entries cited, without tags or fusion partners. Residues count along the entry.
UniProt P09114, 92-664 P191A/W568L: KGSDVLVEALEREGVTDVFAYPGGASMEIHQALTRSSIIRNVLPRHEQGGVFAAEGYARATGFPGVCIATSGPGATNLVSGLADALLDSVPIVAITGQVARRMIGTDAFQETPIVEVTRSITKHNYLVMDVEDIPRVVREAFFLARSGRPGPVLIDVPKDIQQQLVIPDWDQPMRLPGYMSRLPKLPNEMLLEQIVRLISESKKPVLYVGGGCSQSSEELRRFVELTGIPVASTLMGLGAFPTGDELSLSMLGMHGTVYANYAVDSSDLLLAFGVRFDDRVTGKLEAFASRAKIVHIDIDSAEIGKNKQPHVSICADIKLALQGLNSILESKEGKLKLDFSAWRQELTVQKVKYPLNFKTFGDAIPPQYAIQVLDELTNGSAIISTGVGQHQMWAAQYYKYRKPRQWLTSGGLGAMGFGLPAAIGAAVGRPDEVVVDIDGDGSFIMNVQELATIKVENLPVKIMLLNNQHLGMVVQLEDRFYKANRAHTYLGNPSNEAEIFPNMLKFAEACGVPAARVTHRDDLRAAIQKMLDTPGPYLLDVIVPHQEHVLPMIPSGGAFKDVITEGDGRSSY

Assay [1] relates to tobacco callus. The conditions noted are these: Chlorsulfuron, 10 ppb. On the procedure: For plant cell transformations, standard aseptic techniques for the manipulation of sterile media and axenic plant/bacterial cultures were followed, including the use of a laminar flow hood for all transfers. Recipes for media are given in Example VI. Potted tobacco plants for leaf disk infections were grown in a growth chamber maintained for a 12 hr. 24°C day, 12 hr, 20°C night cycle, with approximately 80% relative humidity, under mixed cool white fluorescent and incandescent lights. Tobacco leaf disk infections were carried out essentially by the method of Horsch et al. (1985) Science 227, 1229.
Young leaves, not fully expanded and approximately 4-6 inches in length, were harvested with a scalpel from approximately 4-6 week old tobacco plants (Nicotiana tabacum var. Xanthi). The leaves were surface sterilized for 30 minutes by submerging them in approximately 500 ml of a 10% Chlorox, 0.1% SDS solution and then rinsed 3 times with sterile deionized water. Leaf disks, 6 mm in diameter, were prepared from whole leaves using a sterile paper punch.
Leaf disks were inoculated by submerging them for several minutes in 20 ml of a 1:10 dilution of an overnight Agrobacterium culture carrying the plasmid GCKNT13. Agrobacterium cultures were started by inoculating 10 ml of YEB broth with a single bacterial colony removed form a R-agar plate. The culture was grown for approximately 17-20 hours in 18 mm glass culture tubes in a New Brunswick platform shaker maintained at 28°C.
After inoculation, the leaf disks were placed in petri dishes containing CN agar medium. The dishes were sealed with paraflm and incubated under mixed fluorescent and "Gro and Sho" plant light (General Electric) for 2-3 days in a culture room maintained at approximately 25°C.
[…] Cefotaxime was kept as a frozen 100 mg/ml stock solution and added aseptically (filter sterilized through a 0.45 µm filter) to the media after autoclaving. A fresh kanamycin stock (50 mg/ml) was made for each use and was filter sterilized into the autoclaved media.
Leaf disks were incubated under the growth conditions described above for 3 weeks and then transferred to fresh media of the same composition.
Root formation on selective and non-selective media was recorded within 3 weeks.
Callus growth on selective and non-selective media was recorded within 3 weeks.

Assay [2] relates to Cells of N.tabacum cv. W38. Kind of assay: Level of chlorsulfuron resistance in transformed N. tabacum colonies. The assay is classed as cell-based. The conditions noted are these: for Number of Colonies Actively Growing After One Month on Selective Media: N. tabacum/mutant ALS gene (pAGS152), one hundred colonies plated.
A further assay concerns Brassica napus. Put plainly: Brassica napus plants sprayed with chlorsulfuron. The assay is classed as in vivo, Brassica napus cv. Olga. To be noted: two of the five transformants.
Assay [3] deals with tobacco callus. Put plainly: Growth of tobacco mutant callus (C3, S4, Hra) on herbicide. The assay is classed as cell-based, Nicotiana tabacum var. Xanthi. The conditions noted are these: C3 cell line (SURA-C3, proline-to-glutamine at position 197). On the procedure: (§1) Callus cultures of sensitive tobacco (Nicotiana tabacum var. Xanthi) were exposed to sulfometuron methyl at 2 ppb according to the method described by Chaleff, U.S. 4,443,971. […] Plants were regenerated from Hra callus cultures. […] ALS activity in extracts of leaves of wild type and homozygous Hra mutant tobacco plants was determined.

In another assay the target is T1, ALS (Nicotiana tabacum, UniProt P09114, P191A/W568L).
T1 construct: ALS activity in extracts of leaves of wild type and homozygous Hra mutant tobacco plants was determined; from tissue; host or cells: leaf extracts of homozygous Hra mutant tobacco plants
The assay is classed as biochemical. To be noted: homozygous Hra mutant tobacco plants. On the procedure: as §1

The subject of assay [4] is herbicide-resistant ALS (tobacco SURB-Hra gene). To be noted: Brassica napus Transformant Ro#5.

`COc1nc(C)nc(NC(=O)NS(=O)(=O)c2ccccc2Cl)n1` [chlorsulfuron]: the “Number of transformed shoot explants producing callus on selective and non-selective media” value in the assay on tobacco callus [1] (EXP. #1, GV3850) is 0/10; in the assay with tobacco callus [1] (EXP. #1, GVKK), 0/13; in the assay with tobacco callus [1] (EXP. #1, GVKNT13), 0/62; with tobacco callus [1] (Exp. #2, GV3850), 0/25; in the assay on tobacco callus [1] (Exp. #2, GVKK), 0/23; in the assay with tobacco callus [1] (Exp. #2, GVKNT13) it was 0/102. Moreover, the “Number of Colonies Actively Growing After One Month on Selective Media” value in assay [2] (chlorsulfuron 20 ppb) came out at 100; in assay [2] (chlorsulfuron 50 ppb) it was 100; in assay [2] (chlorsulfuron 200 ppb), 100; in assay [2] (chlorsulfuron 500 ppb) it was 100; in assay [2] (chlorsulfuron 2000 ppb), 99; in assay [2] (chlorsulfuron 20000 ppb) it was 6. Also, the “level of resistance compared with S4 herbicide-resistant mutant tobacco” value in assay [2] (pAGS152 transformants) is recorded as “about ten fold higher”. For the same compound, the “level of resistance compared with that which is lethal to control (untransformed) plants” value in the assay with Brassica napus is “about 10 times”. In the assay with tobacco callus [3], the “selective herbicide resistance conferred by the mutation” value is given as “conferred resistance”. Moreover, the “resistance of ALS activity in leaf extract compared with wild type plants” value at ALS was “about one thousand fold more resistant”. For the same compound, the “Percent Uninhibited ALS Activity” value in assay [4] (1ppb) was 88.1%; in assay [4] (10ppb) it was 36.6%; in assay [4] (100ppb), 20.1%; in assay [4] (1000ppb), 14.5%.

The values are drawn from patent EP0257993B1, “Nucleic acid fragment encoding herbicide resistant plant acetolactate synthase” (priority 1986, dated 1988).
